Data on 2 compounds can be found in patent US20080318905A1, “Prodrugs and methods of making and using the same” (priority 2006, published 2008).

The chains behind the UniProt entries cited, without tags or fusion partners.
UniProt P35372, whole entry: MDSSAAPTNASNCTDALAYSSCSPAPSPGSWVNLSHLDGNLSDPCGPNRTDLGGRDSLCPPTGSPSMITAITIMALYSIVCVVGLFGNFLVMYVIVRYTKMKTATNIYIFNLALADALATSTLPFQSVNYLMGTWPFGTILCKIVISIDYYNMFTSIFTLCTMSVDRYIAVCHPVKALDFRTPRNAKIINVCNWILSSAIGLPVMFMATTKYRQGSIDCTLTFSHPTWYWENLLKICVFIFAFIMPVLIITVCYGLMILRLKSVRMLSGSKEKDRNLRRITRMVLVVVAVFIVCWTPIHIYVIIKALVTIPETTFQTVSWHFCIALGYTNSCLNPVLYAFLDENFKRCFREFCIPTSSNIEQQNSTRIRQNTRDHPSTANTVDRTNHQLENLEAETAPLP

Molecules are shown by their SMILES. Structures can show the parent of a compound that is named as a salt.

In general, Ki refers to a measure of affinity in units of concentration, obtained from inhibition or displacement. Low values mean tighter binding, high ones weaker binding. One may read the IC50 as the concentration that inhibits the measured activity by half. A lower IC50 goes with inhibition by little substance.

For this assay, the target named is human mu receptor (Homo sapiens, UniProt P35372). Description: Human mu receptor binding (IC50, Ki).

As to `CN1CC[C@]23CCCC[C@H]2[C@H]1Cc1ccc(O)cc13` [levorphanol, Levorphanol, reference compound], affinity was put at a Ki of 0.22 nM. Regarding `CN1CCC23CCCCC2C1Cc1ccc(O)cc13` (centres unmarked) [levorphanol tartrate, reference compound], the IC50 stood at 0.52 nM.
